Entries after “also recorded” stand apart in the source; their conditions may differ.

Data set [1] in a line: simulated in-vitro gastrointestinal digestion of protein hydrolysate (PH). The following applies: peptide within PH, artificial GIT. The data set is classed as in vitro ADME. From the text: Milk proteins and milk protein hydrolysates are commonly known as precursors of a large range of ACE inhibitory peptides. After consumption, the proteins and peptides are subjected to various digestive enzymatic processes in the human gastrointestinal tract, which results in the release of in-vivo ACE inhibitory peptides. In order to assess the break-down of the identified bioactive peptides and the formation of novel active peptides after human consumption, PH was processed by an artificial gastro-intestinal tract, which simulated conditions typically found in the human body. At certain times samples were taken from the GIT model system. These were also analysed using the on-line HPLC-Bioassay-MS or HRS-MS system.
Digestion of protein hydrolysate (hereafter PH) a hydrolyzed casein protein isolate obtained from DSM (Delft, The Netherlands). The protein hydrolysate (PH) was prepared by incubation of 10 wt % potassium caseinate with overproduced and essentially pure endoprotease from Aspergillus niger as described in WO 02/45524.
The digestion procedure was performed using a dissolution model (Vankel) with a 100 ml flask. […]
The samples were transferred into a beaker and were heated in a microwave till boiling. […] The total N concentration was determined and converted to protein level using the Kjeldahl factor of casein (6.38). […]

The nature of data set [2]: simulated in-vitro gastro-intestinal digestion of synthetic MAP and ITP (micro-dissolution). It is filed as in vitro ADME. The following applies: synthetic peptide. From the text: For the dissolution the following solutions were used: […]

In the case of `CC[C@H](C)[C@H](N)C(=O)N[C@H](C(=O)N1CCC[C@H]1C(=O)O)[C@@H](C)O` [ITP, Ile-Thr-Pro], in data set [1], the “stability in the gastro-intestinal tract” value was “stable in the human intestinal tract; also recorded: high resistance against GIT digestion”. Also, the “stability under gastro-intestinal conditions” value in data set [2] was “excellent stability under gastrointestinal conditions”. In the case of `CSCC[C@H](N)C(=O)N[C@@H](C)C(=O)N1CCC[C@H]1C(=O)O` [MAP, Met-Ala-Pro], the “stability in the gastro-intestinal tract” value in data set [1] is “stable in the human intestinal tract; also recorded: high resistance against GIT digestion”.
